# Apparent affinities of Ab-14 variants for a coronavirus HR2 peptide

Values reported by Li et al. 2023, doi:10.1038/s41467-023-39022-2 (FLAb copy).

Antigen: PDVDLGDISGINAS, a 14-residue peptide of the SARS-CoV-2 spike HR2 region.

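The starting antibody came from a phage panning campaign against this peptide. Designed CDR sequences, proposed from the first random library and measured here. Their group label is 14H_En_HC (En: ensemble of fine-tuned language models; HC: hill climbing; a sequence that several methods proposed may carry one label only). AlphaSeq pools MATa yeast showing the antibodies with MATalpha yeast showing the peptide. After mating in shaken culture at 30 °C for 16 h, diploids were selected and their barcode pairs sequenced. Read counts were normalised to the haploid input and turned into Kd by a linear fit to BCL2-family pairs of known affinity, for each replicate. Mating was done six times.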

Each scFv is VH, a (GGGGS)3 linker, VL, as in the parent Ab-14, and differs from it in the CDRs of the heavy chain only.
VH: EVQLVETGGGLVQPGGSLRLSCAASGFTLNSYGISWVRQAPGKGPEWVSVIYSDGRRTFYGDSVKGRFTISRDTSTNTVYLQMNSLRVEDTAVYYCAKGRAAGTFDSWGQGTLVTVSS
VL: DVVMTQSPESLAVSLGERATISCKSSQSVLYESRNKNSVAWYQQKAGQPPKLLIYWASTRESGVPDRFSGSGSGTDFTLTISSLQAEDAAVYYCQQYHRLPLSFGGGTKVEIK

Variants are written as CDR1, CDR2 and CDR3 of the heavy chain (limits as in the source). Parent: GFTLNSYGIS, VIYSDGRRTFYGDSVK, GRAAGTFDS. Scale: log10 of Kd in nM, estimated from mating counts; low values are strong binders. Replicates are averaged; those with no signal do not enter the mean. A pair that was not seen in that replicate is written "ND"; this usually means weak binding, but a binder can also be missed. The range of this assay differs from that of the first round, and the authors advise against merging the two.

CDR-H1,CDR-H2,CDR-H3,"log10 Kd, replicates",mean log10 Kd (nM),control signals
GFDLNEYGIS,VIYADGLRTSYADSVK,GQEAGTFDV,0.16 / 0.13 / -0.10 / -0.13 / 0.16 / 0.46,0.11,0 of 18
GFDLNEYGIS,VIYADGRRTFYADSVK,GKVAGTFDQ,-0.57 / -0.57 / -0.76 / -0.72 / -0.76 / -0.40,-0.63,1 of 18 (2.43)
GFDLNEYGIS,VIYADGRRTAYIDSVK,GNQAGTFDS,-0.13 / -0.21 / -0.74 / -0.84 / 0.23 / -0.52,-0.37,0 of 18
GFDIDEYGIS,VIYADGRRTFYADSVK,GNNAGTFDV,-0.44 / -0.68 / -0.59 / 0.08 / -0.75 / -0.61,-0.50,0 of 18
GFDLNEYGIS,VIYADGRRTFYTDSVK,GAQAGTFDQ,-0.54 / -0.26 / 0.24 / -0.57 / -0.19 / -0.28,-0.27,0 of 18
GFDLNEYGIS,VIYADGRRTFYADSVK,GNTAGTFSS,-0.44 / -0.47 / -0.60 / -1.01 / -0.40 / -0.46,-0.56,0 of 18
GFDLNEYGIS,VIYADGRRTAYSDSVK,GEIAGTFDI,0.10 / -0.21 / -0.26 / -0.46 / -0.22 / -0.31,-0.23,1 of 18 (2.67)
GFDLNEYGIS,VIYADGRRTFYTDSVK,GQLAGTFDL,-0.18 / -0.48 / -0.58 / -0.73 / -0.51 / -0.27,-0.46,0 of 18
GFNLDEYGIS,VIYADGMRTFYQDSVK,GEVAGTFDV,-0.12 / 0.02 / -0.42 / -0.32 / -0.03 / -0.11,-0.16,0 of 18
GFDLNEYGIS,VIYADGRRTFYVDSVK,GENAGTFDM,0.06 / -0.32 / -0.58 / -0.39 / -0.37 / -0.35,-0.33,0 of 18
GFDLNEYGIS,VIYADGRRTFYIDSVK,GENAGTFNV,-0.37 / -0.66 / -0.69 / -0.67 / -0.59 / -0.53,-0.59,0 of 18
GFDLNEYGIS,VIYADGRRTFYADSVK,GQLAGTFSM,-0.80 / -0.65 / 0.33 / -0.70 / -1.08 / -0.93,-0.64,0 of 18
GFDLNEYGIS,VIYADGRRTFYSDSVK,GEAGGTFDT,-0.07 / 0.79 / 0.23 / 0.24 / 0.33 / -0.09,0.24,0 of 18
GFDLNEYGIS,VIYADGRRTFYADKVK,GEFAGTFNV,0.23 / 0.04 / -0.11 / 0.19 / 0.06 / 0.29,0.12,1 of 18 (2.72)
GFDLNEYGIS,VIYADGRRTFYADSVK,GEIAGTFDQ,0.56 / 0.46 / 0.43 / 1.39 / 0.21 / 0.68,0.62,1 of 18 (1.32)
GFDLNEYGIS,VIYADGRRTAYIDSVK,GHLAGTFDE,-0.16 / -0.07 / -0.42 / 0.08 / -0.63 / 0.10,-0.18,0 of 18
GFNLDEYGIS,VIYADGKRTFYADSVK,GQIAGTFIV,-0.10 / -0.29 / -0.24 / -0.45 / -0.23 / 0.01,-0.22,0 of 18
GFQLDEYGIS,VIYADGRRTFYSDSVK,GQVAGTFDV,0.43 / 0.32 / 0.71 / 1.88 / 0.78 / 1.26,0.90,0 of 18
GFDLNEYGIS,VIYADGKRTFYADNVK,GEVAGTFIV,ND / ND / ND / ND / ND / ND,ND,0 of 18
GFDLNEYGIS,VIYADGKRTFYADSVK,GNAAGTFDS,-0.72 / -0.50 / 0.23 / 0.04 / -0.45 / 0.18,-0.20,1 of 18 (2.95)
GFDINEYGIS,VIYADGRRTAYADSVK,GEQAGTFDV,0.02 / -0.28 / -0.39 / -0.41 / -0.24 / -0.29,-0.26,0 of 18
GFDLNEYGIS,VIYADGIRTFYADSVK,GNAAGTFDM,0.03 / -0.41 / -0.27 / -0.31 / -0.38 / 0.05,-0.21,0 of 18
GFDLNEYGIS,VIYADGRRTAYIDSVK,GQAAGTFDS,-0.31 / -0.55 / -0.68 / -0.75 / -0.59 / -0.60,-0.58,0 of 18
GFDLQEYGIS,VIYADGRRTFYTDSVK,GEVAGTFDS,0.08 / 0.50 / -0.13 / -0.09 / -0.13 / 0.06,0.05,0 of 18
GFDLNEYGIS,VIYADGKRTFYTDSVK,GEVAGTFDS,-0.27 / ND / -0.31 / 0.11 / -0.73 / ND,-0.30,0 of 18
GFDLNEYGIS,VIYADGMRTFYSDSVK,GEQAGTFVS,0.07 / 0.35 / 0.26 / 0.39 / 0.16 / 0.34,0.26,1 of 18 (2.11)
GFDLEDYGIS,VIYADGMRTAYADSVK,GEIAGTFDV,0.22 / 0.71 / 0.06 / 0.05 / 1.20 / ND,0.45,0 of 18
GFDLNEYGIS,VIYADGRRTQYIDSVK,GEVAGTFDS,0.12 / 0.13 / -0.10 / -0.17 / -0.45 / 0.45,0.00,0 of 18
GFDLNEYGIS,VIYADGVRTFYADSVK,GQTAGTFDV,0.20 / -0.47 / -0.39 / -0.42 / -0.54 / -0.29,-0.32,0 of 18
GFDLNEYGIS,VIYADGRRTAYSDSVK,GEAAGFFDI,0.18 / 0.13 / 0.58 / 1.47 / 0.16 / 0.16,0.45,0 of 18
GFDLEEYGIS,VIYADGRRTFYSDSVK,GEAAGTFDE,-0.07 / 0.27 / 0.51 / -0.25 / 0.00 / 0.82,0.21,0 of 18
GFDLNEYGIS,VIYADGRRTAYSDSVK,GGNAGTFDT,-0.11 / -0.41 / -0.38 / -0.45 / -0.56 / -0.34,-0.37,0 of 18

The authors averaged sequences with at least three values out of six and counted those with two or fewer as poor binders. Empty control strains, which show no peptide, gave a signal in 1% of pairings with all heavy chain designs; the median was 2.08 and 95% of these signals were weaker than 0.84. No background was subtracted. The control count says in how many pairings with the empty strains this scFv gave a signal, with their mean in brackets. The parent sequence was in this pool as ten entries: three were never detected, three once, and four in most replicates, with averages from 0.34 to 2.37.